Data taken from publication PMC8286823, “Identifying SARS-CoV-2 antiviral compounds by screening for small molecule inhibitors of nsp15 endoribonuclease” (Biochemical Journal, 2021).

Molecular target: SARS-CoV-2 nsp15 endoribonuclease (Severe acute respiratory syndrome coronavirus 2, UniProt P0DTD1)
Settings: for Z-score [High]: high compound concentration 3.75 µM; for Z-score [Low]: low compound concentration 1.25 µM

| Compound | Z-score [High] | Z-score [Low] | Lowest Z-score (lowest of low (1.25 µM) and high (3.75 µM) compound concentration) |
| --- | --- | --- | --- |
| CN1C[C@H](C(=O)N[C@]2(C)O[C@@]3(O)[C@@H]4CCCN4C(=O)[C@H](Cc4ccccc4)N3C2=O)C=C2c3cccc4[nH]cc(c34)C[C@H]21 [Ergotamine] | 0.06 | 0.03 | – |
| O=C1c2cc([N+](=O)[O-])ccc2-n2c1nc1ccccc1c2=O [GNF-PF-3777] | – | – | 3.95 |
| CCCCC[C@H](O)CC(=O)CCc1ccc(O)c(OC)c1 [Gingerol] | 0.67 | – | – |
| O=C(/C=C/C=C/c1ccc2c(c1)OCO2)N1CCCCC1 [Piperine] | 0.05 | – | – |
| O=C(/C=C/c1ccc(O)c(O)c1)O[C@H](Cc1ccc(O)c(O)c1)C(=O)O [Rosmarinic acid] | 1.19 | 0.08 | – |
| C[C@H]1CC[C@@]2(OC1)O[C@H]1C[C@H]3[C@@H]4CC[C@@H]5C[C@@H](O)CC[C@]5(C)[C@H]4CC[C@]3(C)[C@H]1[C@@H]2C [Sarsasapogenin] | 0.19 | -0.79 | – |
| C[C@H]1[C@H](C)CC[C@]2(C(=O)O)CC[C@]3(C)C(=CC[C@@H]4[C@@]5(C)CCC(=O)C(C)(C)[C@@H]5CC[C@]43C)[C@H]12 [Ursonic acid] | 0.30 | 0.56 | – |
